The source of these data is US20260184693A1, “INHIBITORS OF SOLUTE CARRIER FAMILY 6A MEMBER 19 (SLC6A19) AND METHODS OF USE THEREOF” (Maze Therapeutics, Inc., priority 2022, published 2026).

Amino acid sequences for entries named in this document (tags omitted). Residues count along the entry.
UniProt Q695T7, whole entry: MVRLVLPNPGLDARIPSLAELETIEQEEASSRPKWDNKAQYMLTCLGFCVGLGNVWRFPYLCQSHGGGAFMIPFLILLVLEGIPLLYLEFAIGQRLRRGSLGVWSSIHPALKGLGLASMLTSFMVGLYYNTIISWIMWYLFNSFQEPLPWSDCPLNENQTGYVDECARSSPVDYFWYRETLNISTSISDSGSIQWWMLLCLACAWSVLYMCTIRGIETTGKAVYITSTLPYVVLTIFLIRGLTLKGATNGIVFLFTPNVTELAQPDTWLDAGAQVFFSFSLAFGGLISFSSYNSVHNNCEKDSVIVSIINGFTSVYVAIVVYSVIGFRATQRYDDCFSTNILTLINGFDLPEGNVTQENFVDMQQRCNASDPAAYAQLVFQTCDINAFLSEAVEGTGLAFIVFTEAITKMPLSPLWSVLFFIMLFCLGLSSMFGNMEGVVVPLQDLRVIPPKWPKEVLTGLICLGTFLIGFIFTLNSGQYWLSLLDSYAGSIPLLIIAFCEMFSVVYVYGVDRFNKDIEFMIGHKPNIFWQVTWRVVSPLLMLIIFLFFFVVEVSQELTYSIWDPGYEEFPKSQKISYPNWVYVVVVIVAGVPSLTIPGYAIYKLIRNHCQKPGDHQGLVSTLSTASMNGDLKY
UniProt Q9HBJ8, 15-222 partner limits assumed: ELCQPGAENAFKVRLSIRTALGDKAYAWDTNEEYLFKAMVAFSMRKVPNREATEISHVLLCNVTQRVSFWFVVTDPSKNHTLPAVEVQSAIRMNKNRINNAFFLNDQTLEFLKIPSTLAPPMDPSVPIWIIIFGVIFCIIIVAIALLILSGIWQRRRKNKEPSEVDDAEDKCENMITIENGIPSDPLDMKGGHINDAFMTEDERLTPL

This experiment concerns the target human SLC6A19 (Homo sapiens, UniProt Q695T7). Put plainly: Example B2: 13C6,15N-isoleucine uptake, RapidFire mass spectrometry, in CHO cells with doxycycline-inducible expression of human SLC6A19 and TMEM27. The settings on record: read-out: SLC6A19_RapidFire Uptake Assay IC50. On the procedure: Assay ready vials of CHO cells with doxycycline inducible expression of human SLC6A19 and TMEM27 were thawed, plated in T175 flasks containing DMEM/F12 media, 10% FBS, 100 Penicillin-Streptomycin, 1× UltraGlutamate, 1 mM Sodium Pyruvate, Sodium Bicarbonate (7.5 mL of 7.5% solution in 500 mL media final), […] Blasticidin, 150 µg/mL Hygromycin B Gold, and 500 µg/mL G418, and incubated (humidified, 37° C. with […]) for 48 hours. Media was then removed, flasks were washed with 20 mL of DPBS, and 5 mL of TryμLE™ Express was added to each flask to initiate cell dissociation. After 5 minutes, 10 mL of cell culture media was added to each flask and mixed. The cell suspension was collected and centrifuged for 5 minutes at 200×g. The supernatant was removed, and the pellet was resuspended in 10 mL of cell culture media. Resuspended cells were counted using a Vi-Cell. 30 μL/well (20,000 cells/well) of cell suspension was added to Poly-D-Lysine 384-well black/clear plates. Plates were incubated (humidified, 37° C. with 5% CO2) for 24 hours. To induce expression of human SLC6A19 and TMEM27, 10 μL of assay culture media containing 4 μg/mL doxycycline was added to each well. Assay plates were then incubated (humidified, 37° C. with 5% CO2) overnight. […] Peak areas were calculated using RapidFire Integrator software.

As usually defined, the IC50 is the concentration at which inhibition is half-maximal. Turning to `CN(C(=O)NCc1cc2cc(Cl)ccc2[nH]1)[C@@H]1CCCN(C(=O)Cn2cnnn2)C1`, the IC50 was determined as 5.74 µM.
